Results as given in BindingDB's records for doi:10.1016/0006-2952(86)90769-0 (Wyeth Laboratories, 1986).

Sequences of proteins named here, by UniProt entry; tags and fusion partners are left off.
UniProt P23977, whole entry: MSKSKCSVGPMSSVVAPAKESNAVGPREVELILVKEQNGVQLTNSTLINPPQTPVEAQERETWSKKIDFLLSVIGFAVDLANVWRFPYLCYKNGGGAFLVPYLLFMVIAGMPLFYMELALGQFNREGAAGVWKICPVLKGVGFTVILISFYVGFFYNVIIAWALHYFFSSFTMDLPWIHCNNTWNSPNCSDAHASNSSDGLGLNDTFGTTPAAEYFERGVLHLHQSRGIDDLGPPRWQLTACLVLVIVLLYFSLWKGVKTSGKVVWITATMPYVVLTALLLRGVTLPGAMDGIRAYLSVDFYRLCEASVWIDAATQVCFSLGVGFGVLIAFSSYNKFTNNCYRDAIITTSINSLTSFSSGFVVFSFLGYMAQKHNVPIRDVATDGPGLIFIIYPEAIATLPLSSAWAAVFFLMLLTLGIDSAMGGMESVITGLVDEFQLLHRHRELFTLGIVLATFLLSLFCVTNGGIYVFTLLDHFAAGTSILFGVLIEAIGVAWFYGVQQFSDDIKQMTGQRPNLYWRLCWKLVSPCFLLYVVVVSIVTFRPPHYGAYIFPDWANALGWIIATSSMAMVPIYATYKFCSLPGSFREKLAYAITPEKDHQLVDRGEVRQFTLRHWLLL

Key:
[1] = target: Sodium-dependent dopamine transporter (Rattus norvegicus, UniProt P23977)
[2] = target: Norepinephrine transporter (Rattus norvegicus, UniProt Q9JIA2)

`COc1ccc(C(CN(C)C)C2(O)CCCCC2)cc1` (configuration not stated) [NSC_62923] was tested, and the Ki [1] was 2.8 nM and the Ki [2] was 0.64 nM and 0.76 nM and 3.14 nM.

Several values for one entry are separate records, joined by “and”; a condition that tells them apart may be missing. Equal values may be shown once.
